Laboratory results from US20190055279A1, “NOVEL POLYPEPTIDES WITH IMPROVED PROTEOLYTIC STABILITY, AND METHODS OF PREPARING AND USING SAME” (TUFTS UNIVERSITY, priority 2015, published 2019).

Protein sequences, listed by entry. Tags and fused reporters are not part of them.
UniProt P27487, whole entry, species assumed: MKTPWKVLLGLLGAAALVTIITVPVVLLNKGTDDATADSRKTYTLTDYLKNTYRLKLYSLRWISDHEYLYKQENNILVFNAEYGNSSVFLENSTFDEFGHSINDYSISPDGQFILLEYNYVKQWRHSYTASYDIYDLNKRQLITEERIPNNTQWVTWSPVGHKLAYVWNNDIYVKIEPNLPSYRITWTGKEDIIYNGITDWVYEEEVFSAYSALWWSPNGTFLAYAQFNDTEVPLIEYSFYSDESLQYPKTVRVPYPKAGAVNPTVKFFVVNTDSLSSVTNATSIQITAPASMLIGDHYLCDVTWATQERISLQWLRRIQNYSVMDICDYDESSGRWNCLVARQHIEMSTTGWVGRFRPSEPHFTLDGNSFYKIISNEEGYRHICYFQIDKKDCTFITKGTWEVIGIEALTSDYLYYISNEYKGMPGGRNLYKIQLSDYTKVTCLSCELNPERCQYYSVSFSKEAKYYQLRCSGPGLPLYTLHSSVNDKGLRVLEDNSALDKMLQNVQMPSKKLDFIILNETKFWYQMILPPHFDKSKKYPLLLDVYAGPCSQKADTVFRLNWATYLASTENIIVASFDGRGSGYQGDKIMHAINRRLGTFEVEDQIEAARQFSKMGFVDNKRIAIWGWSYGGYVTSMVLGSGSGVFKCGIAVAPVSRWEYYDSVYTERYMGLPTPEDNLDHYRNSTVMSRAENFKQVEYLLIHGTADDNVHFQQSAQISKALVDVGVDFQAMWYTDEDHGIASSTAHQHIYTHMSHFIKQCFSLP

Legend:
DPP4 = DPP4 (Homo sapiens, UniProt P27487); experiment: Sensitivity to DPP4: overnight incubation with recombinant DPP4 or vehicle, then receptor agonist bioassay; conditions: overnight incubation with or without DPP4, readout at cognate receptor
Experimental: Plotting concentration versus the luciferase activity yielded quantitative parameters for combined binding (potency) and signaling (efficacy) in a single step. […] DPP4 treated peptides: 10 μl of 0.26 mM peptide were incubated with 2 μL DPP4 in buffer ±DMSO for 18 hrs. Control peptides: 10 μl of 0.26 mM peptide was added to buffer ±DMSO. The final DMSO concentration was the same for all peptides and all peptides were diluted to 0.26 mM concentrations for the DPP4 assay.
Compounds are incubated overnight at 37° C. in the presence of recombinant DPP4 or vehicle (TRIS buffer). The samples are then assessed in GLP-1R agonist assays.
Compounds were incubated overnight at 37° C. in the presence of recombinant DPP4 or vehicle (TRIS buffer, pH 8.0). The samples were then assessed in GLP1R agonist assays as described elsewhere herein.

[1] = Plasma drug activity after bolus injection via central catheter in rats, bioassay of receptor agonism; format: in vivo; conditions: compared with liraglutide
Description: Rats received a bolus injection of either drug via central catheter, followed by serial blood draws after indicated intervals and measurement of plasma drug activity by bioassay of receptor agonism. Potency of each peptide immediately following injection was defined as 100%.

CCCCCCCCCCCCCCCC(=O)N[C@@H](CCC(=O)NCCCC[C@H](NC(=O)[C@H](C)NC(=O)[C@H](C)NC(=O)[C@H](CCC(N)=O)NC(=O)CNC(=O)[C@H](CCC(=O)O)NC(=O)[C@H](CC(C)C)NC(=O)[C@H](Cc1ccc(O)cc1)NC(=O)[C@H](CO)NC(=O)[C@H](CO)NC(=O)[C@@H](NC(=O)[C@H](CC(=O)O)NC(=O)[C@H](CO)NC(=O)[C@@H](NC(=O)[C@H](Cc1ccccc1)NC(=O)[C@@H](NC(=O)CNC(=O)[C@H](CCC(=O)O)NC(=O)[C@H](C)NC(=O)[C@H](Cc1c[nH]cn1)NCC(F)(F)F)[C@@H](C)O)[C@@H](C)O)C(C)C)C(=O)N[C@@H](CCC(=O)O)C(=O)N[C@@H](Cc1ccccc1)C(=O)N[C@H](C(=O)N[C@@H](C)C(=O)N[C@@H](Cc1c[nH]c2ccccc12)C(=O)N[C@@H](CC(C)C)C(=O)N[C@H](C(=O)N[C@@H](CCCNC(=N)N)C(=O)NCC(=O)N[C@@H](CCCNC(=N)N)C(=O)NCC(=O)O)C(C)C)[C@@H](C)CC)C(=O)O [Lira-4]
DPP4 degradation / resistance (in words) (DPP4): remained intact | plasma survival (time-dependent decrease of plasma drug activity) [1]: extended
